The record followed here is the NIST ThermoML archive (doi:10.1016/j.jct.2016.10.010).

Molecules are shown by their SMILES. Numbers after ± are expanded uncertainties.

This data set can be described thus: Molar enthalpy of transition or fusion. Particulars: Crystal; DSC.

Regarding `O=C(O)c1cn(C2CC2)c2cc(N3CCNCC3)c(F)cc2c1=O` [ciprofloxacin], the “Molar enthalpy of transition or fusion” value turned out to be 15.3 ± 3.11 kcal/mol.
